Results taken from US20130071374, “RNA Interferases and Methods of Use Thereof” (published 2013).

Biological target: T1, (His)6MazE
T1 chain: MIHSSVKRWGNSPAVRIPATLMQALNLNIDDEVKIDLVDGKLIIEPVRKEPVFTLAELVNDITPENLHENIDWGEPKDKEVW

B1: MazF(His)6 (protein)
chain: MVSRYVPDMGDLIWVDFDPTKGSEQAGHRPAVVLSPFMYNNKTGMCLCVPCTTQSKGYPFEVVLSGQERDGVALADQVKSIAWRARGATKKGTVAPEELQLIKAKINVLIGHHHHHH
For B1, which “cleavage of the mazG mRNA (toeprinting / primer extension)” value is on record?
Its value is “The cleavage of the mazG mRNA was again blocked when MazE was co-added”.
